Measured values taken from patent publication US4138482A, “3-Cyano-N-(N,N-dimethylaminopropyl)-iminodibenzyl and salts thereof” (Hoffmann-La Roche Inc., priority 1976, dated 1979).

Assays:
[1] = tested on: serotonin re-uptake ("membrane pump"); experiment: Inhibition of the serotonin re-uptake in vivo (action of the "membrane pump"); details: Rattus norvegicus, Biochem. Pharmacol. 20, 707, 1971
[2] = tested on: serotonin uptake in the synaptosomes of the forebrain of rats; experiment: Inhibition of the serotonin uptake in vitro (synaptosomes of the forebrain of rats); format: biochemical, rat; details: read-out: ED50 (inhibition of 50%) of serotonin uptake in vitro
Experimental: 1. Inhibition of the serotonin uptake in vitro
(§1) The uptake of serotonin in the synaptosomes of the forebrain of rats was tested according to J. Pharmacol. exp.

[3] = tested on: serotonin uptake in the synaptosomes of the forebrain of rats; experiment: Inhibition of the serotonin uptake ex vivo; format: in vivo; details: Rattus norvegicus, ip, injected intraperitoneally, serotonin uptake measured after 1 hour
Experimental: as §1
2. Inhibition of the serotonin uptake ex vivo
An analogous experimental procedure to that given under 1 was utilized. The test substances were, however, injected intraperitoneally; the serotonin uptake was measured after 1 hour. Untreated rats were used as the controls.

[4] = tested on: serotonin uptake in blood platelets of the rat; experiment: Inhibition of the serotonin uptake in vivo (blood platelets); details: ip
Experimental: 5. Inhibition of the serotonin uptake in vivo
Rats were given twice daily over a period of 4 days an intraperitoneal injection of 5.0 mg. of test substance per kg. and 12 hours after the last administration the rats were killed. Serotonin was determined spectrofluorimetrically as described in J. Pharmacol. exp.

For `CN(C)CCCN1c2ccccc2CCc2ccc(Cl)cc21` [Substance C, 3-Chloro-N-(N,N-dimethylaminopropyl)-iminodibenzyl hydrochloride, reference compound], the ED50 [1] was 6.5 mg/kg, the IC50 [2] was 6.4 nM and the ED50 [3] was 2.2 mg/kg. The inhibition at 5 mg/kg ([4]; Rattus norvegicus, Platelet, 5.0 mg/kg intraperitoneally twice daily over 4 days, 12 hours after last administration, read-out: Inhibition in % of the control) was 3% and the “Serotonin in mmol/mg. of protein” value ([4]; 5 mg/kg) was 10.91 ± 2.11 mmol/mg. of protein.

Structures can show the parent of a compound that is named as a salt.
